From US6727244B2, “Mammalian metabolites of a tachykinin receptor antagonist” (Merck & Co., Inc., priority 2000, dated 2004)

By UniProt entry, the sequences of proteins in these tests, tags left out.
UniProt P25103, whole entry: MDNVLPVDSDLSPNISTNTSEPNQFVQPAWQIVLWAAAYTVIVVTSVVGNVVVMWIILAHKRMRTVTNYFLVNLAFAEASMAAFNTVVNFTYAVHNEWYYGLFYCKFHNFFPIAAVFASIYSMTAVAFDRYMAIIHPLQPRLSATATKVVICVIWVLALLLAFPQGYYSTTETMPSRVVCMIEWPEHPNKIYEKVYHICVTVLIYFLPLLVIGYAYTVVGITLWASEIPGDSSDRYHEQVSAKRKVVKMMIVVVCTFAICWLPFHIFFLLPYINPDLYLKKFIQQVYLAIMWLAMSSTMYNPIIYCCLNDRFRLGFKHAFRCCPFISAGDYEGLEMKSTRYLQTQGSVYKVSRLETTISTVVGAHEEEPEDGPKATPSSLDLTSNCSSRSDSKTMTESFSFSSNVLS

Biological target: human NK1 receptor (Homo sapiens, UniProt P25103)
Experiment: human NK1 receptor binding assay (125I-substance P, COS or CHO cells)
Details: read-out: IC50 value for human NK1 receptor binding activity; tested form: mixture of the two C-5 hydroxy epimers
Procedure: To express the cloned human neurokinin-1 receptor (NKIR) transiently in COS, the cDNA for the human NKIR was cloned into the expression vector pCDM9 which was derived from pCDM8 (INVITROGEN) by inserting the ampicillin resistance gene (nucleotide 1973 to 2964 from BLUESCRIPT SK+) into the Sac II site. Transfection of 20 ug of the plasmid DNA into 10 million COS cells was achieved by electroporation in 800 ul of transfection buffer (135 mM NaCl, 1.2 mM CaCl2, 1.2 mM MgCl2, 2.4 mM K2HPO4, 0.6 mM KH2PO4, 10 mM glucose, 10 mM HEPES pH 7.4) at 260 V and 950 uF using the IBI GENEZAPPER (IBI, New Haven, Conn.). […]
The binding assay of human NK1R expressed in either COS or CHO cells is based on the use of ^125I-substance P (^125I-SP, from DU PONT, Boston, Mass.) as a radioactively labeled ligand which competes with unlabeled substance P or any other ligand for binding to the human NK1R. […] The bound radioactivity was separated from unbound radioactivity by GF/C filter (BRANDEL, Gaithersburg, Md.) which was pre-wetted with 0.1 % polyethylenimine. The filter was washed with 3 ml of wash buffer (50 mM Tris pH 7.5, 5 mM MnCl2, 150 mM NaCl) three times and its radioactivity was determined by gamma counter.

## C[C@@H](O[C@H]1OCC(=O)NC1(O)c1ccc(F)cc1)c1cc(C(F)(F)F)cc(C(F)(F)F)c1 (stereo partly shown)
  IC50: 28 nM
